Results published in article PMC8915576 (Frontiers in Pain Research, 2021).

System: MOPr-VACC inhibition in DRG neurons
Test: Chronic desensitization of MOPr-VACC inhibition in DRG neurons
Assay type: cell-based, mouse
Details: pre-incubation 10-240′, NKTR-181 30 μM, fentanyl 1 μM, morphine 10 μM, oxycodone 10 μM

Structure (SMILES)	chronic desensitization (DAMGO 1 μM VACC inhibition after pre-incubation)
CN1CC[C@]23c4c5ccc(O)c4O[C@H]2[C@@H](O)C=C[C@H]3[C@H]1C5 [Morphine, morphine]	neither morphine nor oxycodone induced desensitization at any stage
C[C@@H](NC(=O)[C@@H](N)Cc1ccc(O)cc1)C(=O)NCC(=O)N(C)[C@@H](Cc1ccccc1)C(=O)NCCO [DAMGO, [D-Ala^2, N-MePhe^4, Gly-ol]-enkephalin]	induced desensitization after 30, 60, 120, and 240′
COc1ccc2c3c1O[C@H]1C(=O)CC[C@@]4(O)[C@@H](C2)N(C)CC[C@]314 [Oxycodone, oxycodone]	neither morphine nor oxycodone induced desensitization at any stage
